Earlier results, collected in US7179645B2 (priority 2002, dated 2007).

Target: HER-2/neu receptor (Homo sapiens, UniProt P04626)
Details: in vivo; cited from earlier work

In the case of Herceptin®, the “1 year survival rate” value is listed as 78%, the “duration of response (median)” value is listed as 9.1 and the median survival is listed as 25.1 mo. For the same substance, the “rate of objective response” value was 50%, the “reduction in the risk of death” value was 20% and the “time to disease progression” value was 7.4 mo.
